## Binding of CDR-mutated scFvs to a peptide of the spike HR2 region

Source: Engelhart et al. 2022 (doi:10.1038/s41597-022-01779-4), MIT Lincoln Laboratory and A-Alpha Bio; data file from the FLAb repository.

The target is the same throughout: PDVDLGDISGINAS, from the HR2 region of SARS-CoV-2 spike.

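AAYL51 was designed without a model: most single CDR substitutions and a random sample of double and triple ones. The scFvs were displayed on barcoded MATa yeast, the peptide on MATalpha yeast. After mating in shaken culture at 30 °C for 16 h, diploids were selected and their barcode pairs sequenced. Read counts were normalised to the haploid input and turned into Kd by a linear fit to BCL2-family pairs of known affinity, for each replicate. The assay was run in three technical replicates.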

The variants keep the light chain, the linker and the frameworks of Ab-91 (scFv order VL, three GGGGS repeats, VH).
VL: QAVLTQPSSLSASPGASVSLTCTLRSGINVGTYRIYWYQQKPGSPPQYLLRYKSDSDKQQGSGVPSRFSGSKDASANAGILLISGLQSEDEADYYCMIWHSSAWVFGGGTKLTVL
VH: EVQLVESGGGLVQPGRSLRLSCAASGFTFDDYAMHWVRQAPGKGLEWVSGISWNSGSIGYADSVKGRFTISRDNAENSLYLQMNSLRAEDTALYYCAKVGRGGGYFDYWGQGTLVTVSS

The parent's heavy chain CDRs are GFTFDDYAMH, GISWNSGSIGYADSVK, VGRGGGYFDY; each variant's own CDRs replace them letter for letter.
Values are log10 of the apparent Kd in nM; lower means stronger binding.
"ND" means that the variant was in the library but no mating with the target was seen in that replicate; the authors take this as a sign of poor binding, and no number exists.
As a blank, each scFv also met three strains without target: over library AAYL51, 21% of these pairings were detected, typically at 4.54 and seldom below 3.26. The control count says in how many pairings with the empty strains this scFv gave a signal, with their mean in brackets.
In this assay the parent's reference entry averaged 1.86; its copy inside this library read 0.88.

| # | CDR-H1 | CDR-H2 | CDR-H3 | log10 Kd, replicates | control signals |
|---|---|---|---|---|---|
| 1 | GFTFDDYAMW | HIGWNSGSIGYADSVK | VGRGGGYFDY | ND ND ND | 0 of 9 |
| 2 | GFTFDDYAMH | YISWNSGSIGYADSVK | VGRGGGYNDW | ND ND ND | 0 of 9 |
| 3 | GFTFDDYAMH | QIAWNSGSIGYADSVK | VGRDGGYFDY | ND ND ND | 0 of 9 |
| 4 | GFTFDDYAMH | GISFDSGAIGYADSVK | VGRGGGYFDY | 0.69 0.70 -0.02 | 3 of 9 (4.72) |
| 5 | WFTFDDMAMW | GISWNSGSIGYADSVK | VGRGGGYFDY | ND ND ND | 1 of 9 (3.43) |
| 6 | GFIFDDYAMH | GISWNSTSIGYADSVK | VGRGGGYFPY | ND ND ND | 2 of 9 (4.13) |
| 7 | GFHFDDYAMK | GISWSSGSIGYADSVK | VGRGGGYFDY | ND ND ND | 0 of 9 |
| 8 | GGTFDDYAMH | GISWNSGSIVYADSVK | LGRGGGYFDY | ND ND ND | 1 of 9 (4.32) |
| 9 | FFTFDDYAMH | GISWNSWSIGYPDSVK | VGRGGGYFDY | ND ND ND | 1 of 9 (4.81) |
| 10 | GFTFDDYAMV | GISWNSGSIGYADSVN | VQRGGGYFDY | ND ND ND | 1 of 9 (3.67) |
| 11 | GFTIDDYAMH | GISWNSGSIGYADEVK | VGRGGGYFDI | 1.34 0.95 0.51 | 0 of 9 |
| 12 | GFTFDAYAMH | WISWNSGSIGYADSVK | VGRAGGYFDY | ND ND ND | 0 of 9 |
| 13 | GATFDDYAMH | GISWNSGSIGYVDSVK | VGLGGGYFDY | 5.53 5.33 ND | 4 of 9 (4.68) |
| 14 | GFTFDDYDTH | GISWNSGSIGYADSVK | VGRFGGYFDY | 4.43 4.64 4.65 | 5 of 9 (4.12) |
| 15 | GFTFDDYAIH | HISWNSGSIGYADSVK | QGRGGGYFDY | 4.43 ND ND | 1 of 9 (4.47) |
| 16 | GFTFDDYAWH | GTSWNSGAIGYADSVK | VGRGGGYFDY | ND ND ND | 2 of 9 (3.52) |
| 17 | GFTFDDYAMK | GIYWNSGSIHYADSVK | VGRGGGYFDY | ND ND ND | 0 of 9 |
| 18 | GFTFDCYAMF | GISWNSGFIGYADSVK | VGRGGGYFDY | ND ND ND | 0 of 9 |
| 19 | GFLFDDYVMH | GIVWNSGSIGYADSVK | VGRGGGYFDY | ND ND ND | 0 of 9 |
| 20 | GFTFWDYAMH | GISWNSGSIGYADSVK | VGRGGGYFDY | 2.19 2.15 2.35 | 3 of 9 (5.58) |
| 21 | GDTMDDYAMH | GISWNSGSIGYADSVK | VGRGGGYFDY | ND 4.97 4.52 | 0 of 9 |
| 22 | AFTFDDYAMH | GIVWLSGSIGYADSVK | VGRGGGYFDY | ND ND ND | 0 of 9 |
| 23 | SFTFDDYANH | GISWNSGSIGYADSVK | VGRGGGYFAY | ND 4.78 ND | 1 of 9 (4.11) |
| 24 | GFTFDWYAWH | GISWNSGSIFYADSVK | VGRGGGYFDY | ND ND ND | 0 of 9 |
| 25 | GFTFDDYAMH | GISWNSGSIGYADSVK | HGVGHGYFDY | 4.83 5.39 4.71 | 6 of 9 (4.26) |
| 26 | GFTFDDYMMH | GISVNSGSIGYADSVK | VARGGGYFDY | 3.35 ND 4.69 | 3 of 9 (4.66) |
| 27 | GFTFDDYAMH | DISWNSGSDGYTDSVK | VGRGGGYFDY | ND ND ND | 0 of 9 |
| 28 | GFTFDDYAMH | GISWNSGSIGYADSVK | VGRGKDYWDY | ND ND ND | 4 of 9 (4.48) |
| 29 | GFTFDDYAMH | GISWNSGSIGRADSVK | VGRGGGYFDL | 5.46 4.04 4.96 | 3 of 9 (4.63) |
| 30 | GFTFDDYAMH | GISWNSGSIGYAVQVK | VGRGGGWFDY | ND 3.01 ND | 1 of 9 (4.94) |
| 31 | GFTTDDIAMH | GISWNSYSIGYADSVK | VGRGGGYFDY | ND ND ND | 0 of 9 |
| 32 | GFTFDDYAMH | GISWHSGSVGYADSRK | VGRGGGYFDY | ND ND ND | 0 of 9 |
| 33 | GVTFDDYAMH | GISWNSGSIGYADSVK | VGCGGGYFVY | 3.36 5.40 3.74 | 1 of 9 (2.91) |
| 34 | GFTFDDYAMH | GCSWNSGSFGYADSVK | VGRGGGYFDY | 4.62 ND ND | 2 of 9 (4.14) |
| 35 | GFTFLDYAMH | GISWNSGSIMYADSVK | VGRGGGQFDY | ND ND ND | 0 of 9 |
| 36 | GFTFDDYAMH | GISWNSGSIGYADKVW | VGRGGGYFDY | 3.52 3.18 2.75 | 1 of 9 (3.79) |
| 37 | GFTFDDYAMH | GISNNQGSIGYADSVR | VGRGGGYFDY | 2.84 3.10 3.00 | 1 of 9 (3.77) |
| 38 | GFTFDDYAMH | GISWNSGSIGPADSFK | VGRGGFYFDY | ND ND ND | 3 of 9 (4.62) |
| 39 | GFTFDDYAMH | GISWNSGEIGYADSVK | VKRGGGYFFY | ND ND ND | 1 of 9 (5.72) |
| 40 | GFGFDDYAMH | GISWNSGSIHYADSVG | VGRGGGYFDY | ND ND ND | 0 of 9 |
| 41 | GFTFDDYAMH | AISWRSGSIGYADSAK | VGRGGGYFDY | ND ND ND | 0 of 9 |
| 42 | GFTFDDYAQH | GISTNSGSIGYADSVK | VGRGGGYTDY | 4.72 ND ND | 0 of 9 |
| 43 | GFTFDDYAEH | GISWNSGSIGYADHVK | VGRGFGYFDY | 4.40 ND ND | 3 of 9 (5.45) |
| 44 | GFTFDDYAMH | GMSWNSGSFGYGDSVK | VGRGGGYFDY | ND ND ND | 0 of 9 |
| 45 | GFTFDDTAMH | WISWNSGSIGYADSVK | VGRGGGYFSY | ND ND ND | 0 of 9 |

The 5 strongest on average among those seen in every replicate, once more:

| CDR-H1 | CDR-H2 | CDR-H3 | log10 Kd, replicates | control signals |
|---|---|---|---|---|
| GFTFDDYAMH | GISFDSGAIGYADSVK | VGRGGGYFDY | 0.69 0.70 -0.02 | 3 of 9 (4.72) |
| GFTIDDYAMH | GISWNSGSIGYADEVK | VGRGGGYFDI | 1.34 0.95 0.51 | 0 of 9 |
| GFTFWDYAMH | GISWNSGSIGYADSVK | VGRGGGYFDY | 2.19 2.15 2.35 | 3 of 9 (5.58) |
| GFTFDDYAMH | GISNNQGSIGYADSVR | VGRGGGYFDY | 2.84 3.10 3.00 | 1 of 9 (3.77) |
| GFTFDDYAMH | GISWNSGSIGYADKVW | VGRGGGYFDY | 3.52 3.18 2.75 | 1 of 9 (3.79) |